# Measurements reported in patent publication US9572858B2, “Composition for treating and preventing benign prostatic hyperplasia” (GemVax & KAEL Co., Ltd., priority 2013, dated 2017).
# Sequences of proteins named here, by UniProt entry; tags and fusion partners are left off. A change or cut given only in a name is not applied to a line headed by its entry.
# UniProt P10275: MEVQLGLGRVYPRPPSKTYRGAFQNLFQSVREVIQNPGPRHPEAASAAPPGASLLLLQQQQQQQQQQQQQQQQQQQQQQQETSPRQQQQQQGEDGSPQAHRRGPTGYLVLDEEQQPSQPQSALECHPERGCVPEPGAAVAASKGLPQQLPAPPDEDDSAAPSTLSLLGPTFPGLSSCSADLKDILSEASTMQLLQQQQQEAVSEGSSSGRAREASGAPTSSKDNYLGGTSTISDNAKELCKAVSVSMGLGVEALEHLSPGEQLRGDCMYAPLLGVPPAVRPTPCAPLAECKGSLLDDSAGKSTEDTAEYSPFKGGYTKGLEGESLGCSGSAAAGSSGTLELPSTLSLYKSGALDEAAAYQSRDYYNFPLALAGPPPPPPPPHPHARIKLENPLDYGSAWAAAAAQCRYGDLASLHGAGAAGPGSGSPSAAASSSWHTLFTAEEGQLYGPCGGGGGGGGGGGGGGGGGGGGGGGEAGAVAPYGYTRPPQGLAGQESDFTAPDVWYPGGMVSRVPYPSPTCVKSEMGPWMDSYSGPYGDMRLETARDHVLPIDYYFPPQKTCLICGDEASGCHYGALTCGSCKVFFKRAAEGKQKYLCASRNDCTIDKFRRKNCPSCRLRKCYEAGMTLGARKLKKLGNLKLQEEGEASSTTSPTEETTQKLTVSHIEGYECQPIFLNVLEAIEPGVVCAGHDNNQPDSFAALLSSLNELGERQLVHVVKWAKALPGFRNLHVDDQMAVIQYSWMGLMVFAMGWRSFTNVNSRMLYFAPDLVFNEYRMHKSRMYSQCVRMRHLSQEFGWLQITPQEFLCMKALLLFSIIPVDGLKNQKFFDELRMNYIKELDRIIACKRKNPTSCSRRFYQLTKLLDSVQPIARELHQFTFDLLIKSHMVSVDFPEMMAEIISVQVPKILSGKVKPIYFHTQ
# Key:
# [1] = system: RWPE-1 (prostate epithelium cell line); assay: DHT-induced proliferation of prostate epithelium cell line (CCK-8); type: cell-based; settings: PEP1 100 and 200 μM vs no PEP1
# Method: (§1) Testosterone changes into DHT by 5α-reductase when it is injected to the body and it induces proliferation of prostate cells to cause BPH. Based on this, the experiment has been done to observe the effect on proliferation of prostate cell line by using administration of PEP1 according to example 1. As the cell lines, the WPMY-1 (prostate stromal cell line) and the RWPE-1 (prostate epithelium cell line) from animal models are used. For the experiment, WPMY-1 (2.5×10^3 cells) and RWPE-1 (1×10^4 cells) were seeded to 96 well which has separated experimental groups like Table 4 to observe the proliferation change. The proliferation change was observed by putting CCK-8 solution into each well of the media per 10 μL after suctioning the culture media, and measuring optical density for 1-4 hour at 450 nm wavelength.
# androgen receptor [2] = target: T1, androgen receptor (Homo sapiens, UniProt P10275); assay: Binding ability to androgen receptor, PEP1-FITC competitive test by flow-cytometry in WPMY-1
# T1 construct: As the cell lines, WPMY-1 and RWPE-1 from animal models were used; endogenous in cells; host or cells: WPMY-1; RWPE-1
# Method: (§2) DHT created by 5α-reductase promotes proliferation of prostate cell by binding to androgen receptor and causes BPH. Based on this, the experiment related to proliferation of prostate cell which administrates PEP1 according to example 1 to the body has been done. As the cell lines, WPMY-1 and RWPE-1 from animal models were used. WPMY-1 and RWPE-1 were separated into the group of anti-androgen receptor and the group of isotype control, incubated with each anti-bodies to do competitive test by putting PEP1-FITC (fluorescein isothiocyanate) in it, and measured by value of fluorescence for the result. The fluorescence value was measured by using flow-cytometry method.
# (§3) For each of WPMY-1 and RWPE-1, the fluorescence values were measured in which a case reacted to the anti-androgen receptor isotype control antibody first (competed with antibody, peak of the farthest to the right), other case reacted to the anti-androgen receptor antibody (competed with antibody, peak of the middle), and another case not reacted to two antibodies neither bound to FITC (peak of the farthest to the left) (see FIG. 7 and FIG. 8). […] Therefore, for considering that PEP1 inhibits BPH induced by DHT which binds to anti-androgen receptor, PEP1 can affect BPH by binding to an anti-androgen receptor directly.
# [3] = system: WPMY-1 (prostate stromal cell line); assay: DHT-induced proliferation of prostate stromal cell line (CCK-8); type: cell-based; settings: PEP1 100 and 200 μM vs no PEP1
# Method: as §1
# [4] = system: BPH induced animal model (sulpiride); assay: Organ weights in sulpiride BPH induced animal model; type: in vivo, Sprague-Dawley male rats
# androgen receptor [5] = target: T1, androgen receptor; assay: Binding ability to androgen receptor, PEP1-FITC competitive test by flow-cytometry in RWPE-1
# Method: as §2, §3
# [6] = system: PCNA (proliferating cell nuclear antigen); assay: PCNA expression in prostate tissue of BPH induced mouse model (2D-gel electrophoresis); type: in vivo, C57BL/6 mice; settings: PEP1 250 μg per 25 g mouse s.c. every day, 2 weeks
# Method: (§4) The experiment used 6-8 weeks old male C57BL/6 (n=10/group) mice and the mice were raised in the SPF (specific pathogen free) area of experimental animal laboratory in Medical College of Seoul University. Testosterone enanthate (TE, purchased from EVER Pharma Hena GmbH, Germany) for injection 50 mg and estradiol valerate (purchased from EVER Pharma Hena GmbH, Germany) 0.5 mg are respectively mixed into 70 μl volume of micro-osmotic pump (Alzet pump, purchased from DURECT Corporation, USA), and the pump was transplanted in the back of mouse under anesthetic. The pump was designed to release the hormone in the concentration of 0.11 μl per an hour in 28 days (2 weeks) into the mouse by using osmosis phenomenon.
# (§5) As test materials, testosterone and finasteride were used. […]
# (§6) Inducing BPH increases PCNA (proliferating cell nuclear antigen, compulsory protein for replication) and Ki67 (MK167, compulsory protein for proliferation of cell) in prostate tissues. […] PCNA was measured by using 2D-gel electrophoresis with protein of the extracted from prostate tissue cells, and Ki67 was measured by immunostain method to detect expression level in tissue. […]
# 5α-reductase = assay: Expression of 5α-reductase in ventral prostate by RT-PCR, BPH induced animal model; type: in vivo, Sprague-Dawley male rats; settings: 60 days, rat
# From the text: As androgen, the most commonly used hormone in the body is testosterone. But the most powerful hormone of androgens related to development of prostate is 5α-dihydrotestosterone (DHT) which is made by combining testosterone and 5α-reductase. […] It is reported that DHT made by hyperprolactinemia make more gaining weight in lateral lobe than dorsal lobe or ventral lobe of prostate. Based on this fact, the experiment using PEP1 according to example 1 only or co-administration with other test material to BPH induced animal model was done as follows. […] Also before administrating the test materials, the body weights of every animal were measured and recorded.
# Sulpiride as test material was purchased from Sigma Chemical Co. (St. Louis, Mo., USA) and used for the experiment. […] The dosage of the administration was calculated based on the concentration of 0.5 ml/kg with reflecting the body weight measured every day. […]
# After administrating sulpiride with test materials for 60 days and collecting ventral prostate, the effect to the expression of 5α-reductase was measured by using RT-PCR. […] After then RNA was quantified by using spectrophotometer. […] For the control of quantification in electrophoresis, GAPDH whose expression level is not changed by other drugs was used. […]
# Ki67 (MK167) = assay: Ki67 expression in prostate tissue of BPH induced mouse model (immunostain); type: in vivo, C57BL/6 mice; settings: PEP1 250 μg per 25 g mouse s.c. every day, 2 weeks
# Method: as §4, §5, §6
# [7] = system: BPH induced mouse model (treated with testosterone and estradiol); assay: Body, prostate and seminal vesicle weight in BPH induced mouse model (testosterone and estradiol); type: in vivo, C57BL/6 mice
# Method: as §4
# As test materials, testosterone and finasteride were used. For prepared animal models, per one subject (25 g mouse model) 250 μg of PEP1 according to example 1 and 2500 μg of finasteride (in DMSO or cyclodextrin, purchased from Sigma Aldrich, USA) were administered subcutaneously (injection) respectively every day. After 2 weeks from injecting test materials (4 weeks after transplanting the pump to animal model), the blood was collected from supraorbital vein and centrifuged in 14000 rpm, 4° C., 30 min to separate blood serum, and the prostate was extracted and froze in liquid nitrogen at −70° C. or fixed in a fixing fluid. The test groups for experiment are described in Table 5 below.
# BPH can be detected by the changes of the weights of prostate and seminal vesicle. Based on this, for detecting the effect of PEP1 to the weights of prostate and seminal vesicle which directly show the BPH related symptoms, body weight, prostate weight and seminal vesicles weight were measured in BPH induced animal model. The results of the measurement are shown in Table 5 by group as a graph (see FIGS. 13, 14 and 15).
# [8] = system: prostate tissue of BPH induced animal model; assay: Histological analysis of prostate tissue of BPH induced mouse model (H&E, Masson's trichrome); type: in vivo, C57BL/6 mice; settings: PEP1 250 μg per 25 g mouse s.c. every day, 2 weeks
# Method: The experiment used 6-8 weeks old male C57BL/6 (n=10/group) mice and the mice were raised in the SPF (specific pathogen free) area of experimental animal laboratory in Medical College of Seoul University. Testosterone enanthate (TE, purchased from EVER Pharma Hena GmbH, Germany) for injection 50 mg and estradiol valerate (purchased from EVER Pharma Hena GmbH, Germany) 0.5 mg are respectively mixed into 70 μl volume of micro-osmotic pump (Alzet pump, purchased from DURECT Corporation, USA), and the pump was transplanted in the back of mouse under anesthetic. The pump was designed to release the hormone in the concentration of 0.11 μl per an hour in 28 days (2 weeks) into the mouse by using osmosis phenomenon. As test materials, testosterone and finasteride were used. For prepared animal models, per one subject (25 g mouse model) 250 μg of PEP1 according to example 1 and 2500 μg of finasteride (in DMSO or cyclodextrin, purchased from Sigma Aldrich, USA) were administered subcutaneously (injection) respectively every day. After 2 weeks from injecting test materials (4 weeks after transplanting the pump to animal model), the blood was collected from supraorbital vein and centrifuged in 14000 rpm, 4° C., 30 min to separate blood serum, and the prostate was extracted and froze in liquid nitrogen at −70° C. or fixed in a fixing fluid. […]
# [9] = Sulpiride 40 mg/kg 60 days + PEP1 0.01 mg/kg s.c., rat
# [10] = Sulpiride 40 mg/kg 60 days + PEP1 0.1 mg/kg s.c., rat
# [11] = Sulpiride 40 mg/kg 60 days + PEP1 1 mg/kg s.c., rat
# [12] = Sulpiride 40 mg/kg 60 days + PEP1 10 mg/kg s.c., rat
# [13] = PEP1 250 μg per 25 g mouse s.c. every day, 2 weeks
smiles,measurement,setting,value
"CC[C@H](C)[C@H](NC(=O)[C@H](Cc1ccccc1)NC(=O)[C@H](CCCNC(=N)N)NC(=O)[C@H](CC(C)C)NC(=O)[C@H](CCCNC(=N)N)NC(=O)[C@H](CO)NC(=O)[C@@H](NC(=O)[C@H](CC(C)C)NC(=O)[C@H](CC(C)C)NC(=O)[C@H](C)NC(=O)[C@@H]1CCCN1C(=O)[C@H](CCCNC(=N)N)NC(=O)[C@H](C)NC(=O)[C@@H](N)CCC(=O)O)[C@@H](C)O)C(=O)N1CCC[C@H]1C(=O)N[C@@H](CCCCN)C(=O)O [PEP1, EARPALLTSRLRFIPK]","Proliferation change (CCK-8, optical density 450 nm)","[1]; RWPE-1, DHT 25 μM treated",significant inhibition effect to proliferation
same,"Proliferation change (CCK-8, optical density 450 nm)","[1]; RWPE-1, DHT non-treated",not significant differences
same,Binding to androgen receptor (fluorescence of PEP1-FITC conjugate),"androgen receptor [2]; WPMY-1, competing with anti-androgen receptor antibody, fluorescence decreased",bound weakly to anti-androgen receptor
same,Binding to androgen receptor (fluorescence of PEP1-FITC conjugate),"androgen receptor [2]; WPMY-1, competing with anti-androgen receptor isotype control antibody, fluorescence increased",bound to anti-androgen receptor
same,"Proliferation change (CCK-8, optical density 450 nm)","[3]; WPMY-1, DHT 25 μM treated",significant inhibition effect to proliferation
same,"Proliferation change (CCK-8, optical density 450 nm)","[3]; WPMY-1, DHT non-treated",not significant differences
same,Prostate index,[4]; [9],0.208
same,Weight of prostate,[4]; [9],1.13 ± 0.07 g
same,Weight of seminal vesicle,[4]; [9],0.97 ± 0.07 g
same,Prostate index,[4]; [10],0.265
same,Weight of prostate,[4]; [10],1.32 ± 0.05 g
same,Weight of seminal vesicle,[4]; [10],1.03 ± 0.12 g
same,Prostate index,[4]; [11],0.198
same,Weight of prostate,[4]; [11],0.94 ± 0.08 g
same,Weight of seminal vesicle,[4]; [11],0.81 ± 0.04 g
same,Prostate index,[4]; [12],0.132
same,Weight of prostate,[4]; [12],0.57 ± 0.05 g
same,Weight of seminal vesicle,[4]; [12],0.41 ± 0.03 g
same,"Weight of prostate (significance, P under 0.05)","[4]; co-administration of sulpiride and PEP1, rat",significantly decreased
same,"Weight of seminal vesicle (significance, P under 0.05)","[4]; high-dose PEP1 10 mg/kg + sulpiride, rat",significantly decreased
same,Binding to androgen receptor (fluorescence of PEP1-FITC conjugate),"androgen receptor [5]; RWPE-1, competing with anti-androgen receptor antibody, fluorescence decreased",bound weakly to anti-androgen receptor
same,Binding to androgen receptor (fluorescence of PEP1-FITC conjugate),"androgen receptor [5]; RWPE-1, competing with anti-androgen receptor isotype control antibody, fluorescence increased",bound to anti-androgen receptor
same,Expression of PCNA in prostate tissue,[6],decreased
same,Inhibitory effect on 5α-reductase expression compared with finasteride,"5α-reductase; high-dose PEP1 group (GV 10, 10 mg), sulpiride",higher than the group of finasteride administration
same,Level of 5α-reductase expression in ventral prostate (RT-PCR),"5α-reductase; sulpiride + PEP1 0.01-10 mg/kg s.c., dose-dependent",inhibited
same,Expression of Ki67 in prostate tissue,Ki67 (MK167),decreased
same,Prostate weight compared with hormone treated group,[7]; [13],significantly decreased
same,Seminal vesicle weight compared with hormone treated group,[7]; [13],less than that of the hormone treated group
same,Decrease of prostate weight compared with finasteride group,[7]; PEP1 250 μg vs finasteride 2500 μg per 25 g mouse s.c. every day,comparable to the result of the group of administering finasteride
same,Arrangement of the epithelial layer of prostate,[8],arranged in regular order like that of control group
same,Thickness of the epithelium of prostate,[8],less thick than that of the BPH induced group
